This assay has as its target T1, PAC1R (Homo sapiens, UniProt P41586).
T1 construct: host or cells: COS-7
T1 sequence (P41586 21-468): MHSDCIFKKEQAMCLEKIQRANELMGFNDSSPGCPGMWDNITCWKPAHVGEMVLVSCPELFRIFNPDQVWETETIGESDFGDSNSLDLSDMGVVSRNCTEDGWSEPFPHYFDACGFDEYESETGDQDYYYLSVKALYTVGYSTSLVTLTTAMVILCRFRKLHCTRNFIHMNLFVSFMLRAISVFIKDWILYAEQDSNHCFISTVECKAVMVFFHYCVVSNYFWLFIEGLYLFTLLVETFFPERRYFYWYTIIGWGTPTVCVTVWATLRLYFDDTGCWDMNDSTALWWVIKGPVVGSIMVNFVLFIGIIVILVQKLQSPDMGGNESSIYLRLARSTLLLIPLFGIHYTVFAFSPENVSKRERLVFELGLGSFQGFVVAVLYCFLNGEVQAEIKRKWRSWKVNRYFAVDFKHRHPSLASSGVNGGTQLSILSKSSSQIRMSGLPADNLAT
Briefly: Live cell cAMP accumulation (GloSensor), COS-7 cells transfected with PAC1R. Particulars: PACAP + vehicle, Fig. 6B, fraction of greatest slope, ± SEM, n = 3-5. Type of assay: cell-based.

With `CC[C@H](C)[C@H](NC(=O)CNC(=O)[C@H](CC(=O)O)NC(=O)[C@H](CO)NC(=O)[C@@H](N)Cc1c[nH]cn1)C(=O)N[C@@H](Cc1ccccc1)C(=O)N[C@H](C(=O)N[C@@H](CC(=O)O)C(=O)N[C@@H](CO)C(=O)N[C@@H](Cc1ccc(O)cc1)C(=O)N[C@@H](CO)C(=O)N[C@@H](CCCNC(=N)N)C(=O)N[C@@H](Cc1ccc(O)cc1)C(=O)N[C@@H](CCCNC(=N)N)C(=O)N[C@@H](CCCCN)C(=O)N[C@@H](CCC(N)=O)C(=O)N[C@@H](CCSC)C(=O)N[C@@H](C)C(=O)N[C@H](C(=O)N[C@@H](CCCCN)C(=O)N[C@@H](CCCCN)C(=O)N[C@@H](Cc1ccc(O)cc1)C(=O)N[C@@H](CC(C)C)C(=O)N[C@@H](C)C(=O)N[C@@H](C)C(=O)N[C@H](C(=O)N[C@@H](CC(C)C)C(=O)NCC(=O)N[C@@H](CCCCN)C(=O)N[C@@H](CCCNC(=N)N)C(=O)N[C@@H](Cc1ccc(O)cc1)C(=O)N[C@@H](CCCCN)C(=O)N[C@@H](CCC(N)=O)C(=O)N[C@@H](CCCNC(=N)N)C(=O)N[C@H](C(=O)N[C@@H](CCCCN)C(=O)N[C@@H](CC(N)=O)C(=O)N[C@@H](CCCCN)C(N)=O)C(C)C)C(C)C)C(C)C)[C@@H](C)O` [PACAP, pituitary adenylate cyclase–activating peptide], the “Normalized Maximum” value is listed as 0.92 ± 0.02.

For the origin of these results see article PMC12264551 (Molecular Pharmacology, 2025).
